## Cyclic peptide permeability, from CycPeptMPDB

Data: CycPeptMPDB; original report Kelly et al. 2021, doi:10.1021/jacs.0c06115.

PAMPA is the parallel artificial membrane permeability assay, which has no cells and reads passive diffusion. P is given in units of 10^-6 cm/s (from log10 values with two decimals); larger means faster passage.

structure (SMILES)	PAMPA (10^-6 cm/s)
CC(=O)N1CCC[C@H]1C(=O)N(C)[C@H](CC(C)C)C(=O)N[C@@H]1C(=O)N(C)[C@H](CC(C)C)C(=O)N[C@H](CC(C)C)C(=O)N(C)[C@@H](CC(C)C)C(=O)N(C)[C@@H](C)C(=O)N[C@@H](CC(C)C)C(=O)N2CCC[C@H]2C(=O)O[C@@H]1C	5.6
CC(=O)N1CCC[C@@H]1C(=O)N(C)[C@H](CC(C)C)C(=O)N[C@@H]1C(=O)N(C)[C@H](CC(C)C)C(=O)N[C@H](CC(C)C)C(=O)N(C)[C@@H](CC(C)C)C(=O)N(C)[C@@H](C)C(=O)N[C@@H](CC(C)C)C(=O)N2CCC[C@@H]2C(=O)O[C@@H]1C	8.3
CC(=O)N1CCC[C@@H]1C(=O)N(C)[C@@H](CC(C)C)C(=O)N[C@@H]1C(=O)N(C)[C@H](CC(C)C)C(=O)N(C)[C@@H](CC(C)C)C(=O)N[C@@H](CC(C)C)C(=O)N(C)[C@H](C)C(=O)N[C@@H](CC(C)C)C(=O)N2CCC[C@@H]2C(=O)O[C@@H]1C	0.98
CC(=O)N1CCC[C@H]1C(=O)N[C@@H]1C(=O)N[C@H](CC(C)C)C(=O)N[C@@H](CC(C)C)C(=O)N(C)[C@@H](CC(C)C)C(=O)N[C@H](CC(C)C)C(=O)N[C@H](C)C(=O)N[C@@H](CC(C)C)C(=O)N2CCC[C@@H]2C(=O)O[C@@H]1C	8.3
CC(=O)N1CCC[C@H]1C(=O)N[C@@H]1C(=O)N[C@H](CC(C)C)C(=O)N[C@H](CC(C)C)C(=O)N(C)[C@@H](CC(C)C)C(=O)N[C@@H](CC(C)C)C(=O)N(C)[C@H](C)C(=O)N[C@@H](CC(C)C)C(=O)N2CCC[C@@H]2C(=O)O[C@@H]1C	2.2
CC(=O)N1CCC[C@@H]1C(=O)N(C)[C@@H](CC(C)C)C(=O)N[C@@H]1C(=O)N[C@@H](CC(C)C)C(=O)N[C@@H](CC(C)C)C(=O)N[C@H](CC(C)C)C(=O)N[C@H](C)C(=O)N[C@H](CC(C)C)C(=O)N2CCC[C@@H]2C(=O)O[C@@H]1C	0.3
CC(=O)N1CCC[C@@H]1C(=O)N(C)[C@H](CC(C)C)C(=O)N[C@@H]1C(=O)N(C)[C@@H](CC(C)C)C(=O)N(C)[C@@H](CC(C)C)C(=O)N[C@@H](CC(C)C)C(=O)N(C)[C@@H](C)C(=O)N[C@H](CC(C)C)C(=O)N2CCC[C@@H]2C(=O)O[C@@H]1C	5.5
CC(=O)N1CCC[C@@H]1C(=O)N(C)[C@@H](CC(C)C)C(=O)N[C@@H]1C(=O)N[C@@H](CC(C)C)C(=O)N(C)[C@H](CC(C)C)C(=O)N[C@@H](CC(C)C)C(=O)N(C)[C@H](C)C(=O)N[C@H](CC(C)C)C(=O)N2CCC[C@@H]2C(=O)O[C@@H]1C	6.5
CC(=O)N1CCC[C@H]1C(=O)N(C)[C@@H](CC(C)C)C(=O)N[C@@H]1C(=O)N(C)[C@@H](CC(C)C)C(=O)N(C)[C@H](CC(C)C)C(=O)N(C)[C@@H](CC(C)C)C(=O)N(C)[C@@H](C)C(=O)N[C@@H](CC(C)C)C(=O)N2CCC[C@H]2C(=O)O[C@@H]1C	3.4
CC(=O)N1CCC[C@@H]1C(=O)N(C)[C@@H](CC(C)C)C(=O)N[C@@H]1C(=O)N(C)[C@@H](CC(C)C)C(=O)N[C@@H](CC(C)C)C(=O)N(C)[C@H](CC(C)C)C(=O)N(C)[C@@H](C)C(=O)N[C@H](CC(C)C)C(=O)N2CCC[C@H]2C(=O)O[C@@H]1C	0.78
CC(=O)N1CCC[C@H]1C(=O)N(C)[C@H](CC(C)C)C(=O)N[C@@H]1C(=O)N[C@H](CC(C)C)C(=O)N[C@@H](CC(C)C)C(=O)N[C@@H](CC(C)C)C(=O)N[C@@H](C)C(=O)N[C@H](CC(C)C)C(=O)N2CCC[C@H]2C(=O)O[C@@H]1C	0.26
CC(=O)N1CCC[C@@H]1C(=O)N(C)[C@@H](CC(C)C)C(=O)N[C@@H]1C(=O)N(C)[C@H](CC(C)C)C(=O)N(C)[C@H](CC(C)C)C(=O)N[C@@H](CC(C)C)C(=O)N(C)[C@H](C)C(=O)N[C@@H](CC(C)C)C(=O)N2CCC[C@H]2C(=O)O[C@@H]1C	5.6
CC(=O)N1CCC[C@@H]1C(=O)N(C)[C@@H](CC(C)C)C(=O)N[C@@H]1C(=O)N[C@@H](CC(C)C)C(=O)N[C@H](CC(C)C)C(=O)N[C@H](CC(C)C)C(=O)N[C@H](C)C(=O)N[C@H](CC(C)C)C(=O)N2CCC[C@H]2C(=O)O[C@@H]1C	0.15
CC(=O)N1CCC[C@H]1C(=O)N(C)[C@@H](CC(C)C)C(=O)N[C@@H]1C(=O)N(C)[C@H](CC(C)C)C(=O)N(C)[C@H](CC(C)C)C(=O)N(C)[C@@H](CC(C)C)C(=O)N(C)[C@@H](C)C(=O)N[C@@H](CC(C)C)C(=O)N2CCC[C@H]2C(=O)O[C@@H]1C	6.5
CC(=O)N1CCC[C@H]1C(=O)N[C@@H]1C(=O)N(C)[C@H](CC(C)C)C(=O)N[C@@H](CC(C)C)C(=O)N[C@@H](CC(C)C)C(=O)N[C@@H](CC(C)C)C(=O)N(C)[C@H](C)C(=O)N[C@@H](CC(C)C)C(=O)N2CCC[C@@H]2C(=O)O[C@@H]1C	0.028
CC(=O)N1CCC[C@H]1C(=O)N[C@@H]1C(=O)N[C@H](CC(C)C)C(=O)N[C@H](CC(C)C)C(=O)N(C)[C@H](CC(C)C)C(=O)N[C@@H](CC(C)C)C(=O)N[C@@H](C)C(=O)N[C@@H](CC(C)C)C(=O)N2CCC[C@@H]2C(=O)O[C@@H]1C	2.7
CC(=O)N1CCC[C@H]1C(=O)N(C)[C@@H](CC(C)C)C(=O)N[C@@H]1C(=O)N[C@H](CC(C)C)C(=O)N(C)[C@H](CC(C)C)C(=O)N[C@H](CC(C)C)C(=O)N(C)[C@@H](C)C(=O)N[C@H](CC(C)C)C(=O)N2CCC[C@H]2C(=O)O[C@@H]1C	5.4

Again, the 2 entries with the lowest PAMPA:

structure (SMILES)	PAMPA (10^-6 cm/s)
CC(=O)N1CCC[C@H]1C(=O)N[C@@H]1C(=O)N(C)[C@H](CC(C)C)C(=O)N[C@@H](CC(C)C)C(=O)N[C@@H](CC(C)C)C(=O)N[C@@H](CC(C)C)C(=O)N(C)[C@H](C)C(=O)N[C@@H](CC(C)C)C(=O)N2CCC[C@@H]2C(=O)O[C@@H]1C	0.028
CC(=O)N1CCC[C@@H]1C(=O)N(C)[C@@H](CC(C)C)C(=O)N[C@@H]1C(=O)N[C@@H](CC(C)C)C(=O)N[C@H](CC(C)C)C(=O)N[C@H](CC(C)C)C(=O)N[C@H](C)C(=O)N[C@H](CC(C)C)C(=O)N2CCC[C@H]2C(=O)O[C@@H]1C	0.15

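Conditions beyond the assay type are not listed; see the original paper. Other peptides of the study may be missing here. Entries at the database's floor value (log10 P of -10) are not listed.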